Measured values reported in ChEMBL document CHEMBL2401698 (J Med Chem, 2013).

How the values were obtained:
[1] = target: T1, Adenosine receptor A3 (Mus musculus) (UniProt Q61618); test: Activity at mouse adenosine A3 receptor expressed in HEK293 cell membranes assessed as inhibition of forskolin-stimulated cAMP production preincubated for 30 mins prior to forskolin-treatment measured after 15 mins by ELISA relative to 2-chloro-N6-(3-iodobenzyl)adenosine-5'-N-methyluronamide; type: functional, cell-based
T1 sequence (whole entry): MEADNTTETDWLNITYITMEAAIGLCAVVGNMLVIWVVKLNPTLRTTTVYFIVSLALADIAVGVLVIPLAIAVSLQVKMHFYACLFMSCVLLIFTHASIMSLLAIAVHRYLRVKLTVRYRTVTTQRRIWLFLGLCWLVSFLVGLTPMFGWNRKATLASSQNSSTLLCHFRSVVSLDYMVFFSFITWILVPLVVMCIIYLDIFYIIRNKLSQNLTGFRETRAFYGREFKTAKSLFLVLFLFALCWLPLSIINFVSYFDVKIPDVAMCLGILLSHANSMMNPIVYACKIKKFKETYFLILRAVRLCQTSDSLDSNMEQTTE
Summary of the method: (§1)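 2 × 10^5 cells/tube coincubated with forskolin (10 μM) and ligand for 15 min at 37 °C. Stopped with 1 N HCl; cAMP by competitive binding assay.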

[2] = target: T1, Adenosine receptor A3 (Mus musculus); test: Agonist activity at mouse adenosine A3 receptor expressed in HEK293 cell membranes assessed as inhibition of forskolin-stimulated cAMP production preincubated for 30 mins prior to forskolin-treatment measured after 15 mins by ELISA relative to control; type: functional, cell-based; summary of the method: as §1

- Efficacy [1]: 14.3%
- Emax [2]: 7%
SMILES: O[C@@H]1[C@H](O)[C@@H]2C[C@@H]2[C@H]1n1cnc2c(NCCc3ccccc3)nc(C#Cc3ccccc3)nc21
